Results: US7064117B2, “Anti-cancer 2,3-dihydro-1H-pyrrolo[3,2-f]quinoline complexes of cobalt and chromium” (Auckland Uniservices Limited, priority 2001, dated 2006)

Assays:
[1] = system: AA8; assay: cytotoxicity, 4 h aerobic drug exposure, AA8; assay type: cell-based, Chinese hamster; conditions: read-out: IC50 AA8; 4 h aerobic exposure; mean ± sem
[2] = system: UV4 cell line; assay: cytotoxicity, 4 h aerobic drug exposure, UV4; assay type: cell-based, Chinese hamster; conditions: read-out: IC50 UV4; 4 h aerobic exposure; mean ± sem
[3] = system: EMT6; assay: cytotoxicity, 4 h aerobic drug exposure, EMT6; assay type: cell-based, murine; conditions: read-out: IC50 EMT6; 4 h aerobic exposure; mean ± sem
[4] = system: SKOV3; assay: cytotoxicity, 4 h aerobic drug exposure, SKOV3; assay type: cell-based, human; conditions: read-out: IC50 SKOV3; 4 h aerobic exposure; mean ± sem

## [Co(TACN)(8-HQ)(CN)]ClO4
[1]
  IC50: 5.67 mM
[2]
  IC50: 6.14 mM
[3]
  IC50: 3.58 mM
[4]
  IC50: 6.38 mM
